These compounds were tested against T1, human RXFP1 (Homo sapiens, UniProt Q9HBX9) (assay: RXFP1 Hu cAMP (Test A)).
T1 sequence (Q9HBX9 1-757): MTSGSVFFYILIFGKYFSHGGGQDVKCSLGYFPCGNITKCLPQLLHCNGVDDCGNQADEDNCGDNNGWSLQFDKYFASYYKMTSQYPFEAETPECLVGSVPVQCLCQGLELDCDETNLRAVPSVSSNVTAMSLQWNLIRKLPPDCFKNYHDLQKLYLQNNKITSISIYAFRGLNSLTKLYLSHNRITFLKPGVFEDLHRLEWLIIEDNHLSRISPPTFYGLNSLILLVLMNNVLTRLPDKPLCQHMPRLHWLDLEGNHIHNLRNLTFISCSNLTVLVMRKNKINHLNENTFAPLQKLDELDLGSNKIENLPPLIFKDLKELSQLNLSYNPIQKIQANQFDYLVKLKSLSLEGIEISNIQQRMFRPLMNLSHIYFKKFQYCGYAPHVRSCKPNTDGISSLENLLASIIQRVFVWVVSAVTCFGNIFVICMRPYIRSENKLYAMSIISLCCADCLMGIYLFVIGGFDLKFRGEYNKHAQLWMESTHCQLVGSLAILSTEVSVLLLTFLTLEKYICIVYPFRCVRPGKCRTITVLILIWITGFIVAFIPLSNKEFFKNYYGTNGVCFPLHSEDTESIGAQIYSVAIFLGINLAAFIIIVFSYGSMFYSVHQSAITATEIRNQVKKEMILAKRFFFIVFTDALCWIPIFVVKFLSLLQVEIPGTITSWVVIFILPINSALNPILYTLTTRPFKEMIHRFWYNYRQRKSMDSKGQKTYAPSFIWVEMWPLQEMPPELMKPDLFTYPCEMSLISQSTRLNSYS
Format: cell-based
Parameters: expressed in transfected cells; host or cells: Jump-In T-REx CHO-K1 cells (ThermoFisher), induced with 10 ng/ml doxycycline for 24 h

Compound | EC50 [µM]
COc1cc(F)c(-c2cncc(C(=O)O)c2)cc1C(=O)N[C@H]1[C@@H](C(=O)Nc2cccc(S(=O)(=O)C(F)(F)F)c2)[C@@H]2C=C[C@H]1C2 (racemic) [Example 228] | 1.1
COc1cc(F)c(-c2ccc(C(=O)O)c(F)c2)cc1C(=O)N[C@H]1[C@@H](C(=O)Nc2cccc(S(=O)(=O)C(F)(F)F)c2)[C@@H]2C=C[C@H]1C2 (racemic) [Example 232] | 1.1
COc1cc(F)c(O[C@H]2CC[C@@H](C(=O)O)CC2)cc1C(=O)N[C@@H]1[C@H]2CC[C@H](C2)[C@@H]1C(=O)Nc1cccc(OC(F)(F)F)c1F [Example 18] | 3.2
COc1cc(F)c(O[C@H]2CC[C@@H](C(=O)O)CC2)cc1C(=O)N[C@@H]1[C@H]2CC[C@H](C2)[C@@H]1C(=O)Nc1ccc(F)c(OC(F)(F)F)c1 [Example 21] | 0.023
COc1cc(F)c(O[C@H]2CC[C@@H](C(=O)O)CC2)cc1C(=O)N[C@@H]1[C@H]2CC[C@H](C2)[C@@H]1C(=O)Nc1cc(C(F)(F)F)cc(C(F)(F)F)c1 [Example 22, (1S,4s)-4-(5-(((1S,2R,3S,4R)-3-((3,5-Bis(trifluoromethyl)phenyl)carbamoyl)bicyclo[2.2.1]heptan-2-yl)carbamoyl)-2-fluoro-4-methoxyphenoxy)cyclohexane-1-carboxylic acid] | 0.29
COc1cc(F)c(O[C@H]2CC[C@@](C)(C(=O)O)CC2)cc1C(=O)N[C@@H]1CCC[C@@H]1C(=O)N[C@H](C)C(C)C [Example 60] | 1.1
COc1cc(C#N)c(O[C@H]2CC[C@@](C)(C(=O)O)CC2)cc1C(=O)N[C@@H]1[C@H]2CC[C@H](C2)[C@@H]1C(=O)NCC1(CO)CCC1 [Example 75] | 1.1
COc1cc(C#N)c(O[C@H]2CC[C@@](C)(C(=O)O)CC2)cc1C(=O)N[C@@H]1[C@H]2CC[C@H](C2)[C@@H]1C(=O)N[C@H](C)C1CCCCC1 [Example 120] | 0.045
COc1cc(C#N)c(O[C@H]2CC[C@@](C)(C(=O)O)CC2)cc1C(=O)N[C@@H]1[C@H]2CC[C@H](C2)[C@@H]1C(=O)NCCCC1CC1 [Example 132] | 0.28
COc1cc(C#N)c(O[C@H]2CC[C@@](C)(C(=O)O)CC2)cc1C(=O)N[C@@H]1[C@H]2CC[C@H](C2)[C@@H]1C(=O)NCCCF [Example 135] | 1.1
COc1cc(F)c(O[C@H]2CC[C@@H](C(=O)O)CC2)cc1C(=O)NC1=C(C(=O)Nc2ccc(F)c(C(F)(F)F)c2)CCC1 [Example 214, (1s,4s)-4-(2-Fluoro-5-((2-((4-fluoro-3-(trifluoromethyl)phenyl)carbamoyl)cyclopent-1-en-1-yl)carbamoyl)-4-methoxyphenoxy)cyclohexane-1-carboxylic acid] | 0.29
COc1cc(F)c(Cc2cn[nH]c2)cc1C(=O)N[C@@H]1[C@H]2CC[C@H](C2)[C@@H]1C(=O)Nc1cccc(S(=O)(=O)C(F)(F)F)c1 [Example 219, (1R,2S,3R,4S)-3-(5-((1H-Pyrazol-4-yl)methyl)-4-fluoro-2-methoxybenzamido)-N-(3-((trifluoromethyl)sulfonyl)phenyl)bicyclo[2.2.1]heptane-2-carboxamide] | 0.28
COc1cc(F)c(-c2ccc(C(=O)O)c(C)c2)cc1C(=O)N[C@@H]1[C@H]2CC[C@H](C2)[C@@H]1C(=O)Nc1cccc(S(=O)(=O)C(F)(F)F)c1 [Example 246] | 0.29
COc1cc(F)c(-c2ccc(/C=C/C(=O)O)nc2)cc1C(=O)N[C@@H]1[C@H]2CC[C@H](C2)[C@@H]1C(=O)Nc1cccc(S(=O)(=O)C(F)(F)F)c1 [Example 260, (E)-3-(5-(2-Fluoro-4-methoxy-5-(((1S,2R,3S,4R)-3-((3-((trifluoromethyl)sulfonyl)phenyl)carbamoyl)bicyclo[2.2.1]heptan-2-yl)carbamoyl)phenyl)pyridin-2-yl)acrylic acid] | 0.28
(1R,4s)-4-(2-Cyano-4-fluoro-5-(((2S*,3R*)-3-(((1-methylcyclobutyl)methyl)carbamoyl)bicyclo[2.2.2]octan-2-yl)carbamoyl)phenoxy)-1-methylcyclohexane-1-carboxylic acid [Example 589] | 2.1
(1R,4s)-4-(2-Cyano-4-methoxy-5-(((1R*,2S*,3R*,4S*)-3-(((1-methylcyclobutyl)methyl)carbamoyl)bicyclo[2.2.2]oct-5-en-2-yl)carbamoyl)phenoxy)-1-methylcyclohexane-1-carboxylic acid [Example 541] | 18
(1R,4s)-4-(2-Cyano-4-methoxy-5-(((1S*,2R*)-2-(((1-methylcyclobutyl)methyl)carbamoyl)cyclobutyl)carbamoyl)phenoxy)-1-methylcyclohexane-1-carboxylic acid [Example 573] | 0.28
(1R,4s)-4-(2-Cyano-4-methoxy-5-(((1S*,2S*,3R*,4R*)-3-(((1-methylcyclobutyl)methyl)carbamoyl)-7-oxabicyclo[2.2.1]heptan-2-yl)carbamoyl)phenoxy)-1-methylcyclohexane-1-carboxylic acid [Example 535] | > 40
(1R,4s)-4-(2-Fluoro-4-methoxy-5-(((1R*,2S*,3R*,4S*)-3-(((1-methylcyclobutyl)methyl)carbamoyl)bicyclo[2.2.2]oct-5-en-2-yl)carbamoyl)phenoxy)-1-methylcyclohexane-1-carboxylic acid [Example 545] | 0.045
(1R,4s)-4-(2-Fluoro-4-methoxy-5-(((1S*,2R*)-2-(neopentylcarbamoyl)cyclobutyl)carbamoyl)phenoxy)-1-methylcyclohexane-1-carboxylic acid [Example 569] | 1.1
(1R,4s)-4-(2-Fluoro-4-methoxy-5-(((1S*,2R*,4R*)-4-methoxy-2-(neopentylcarbamoyl)cyclopentyl)carbamoyl)phenoxy)-1-methylcyclohexane-1-carboxylic acid [Example 547] | 1.7

Now from value to compound:

EC50 [µM] | Compound
13 | COc1cc(F)c(-c2nc(C(=O)O)cs2)cc1C(=O)N[C@H]1[C@@H](C(=O)Nc2cccc(S(=O)(=O)C(F)(F)F)c2)[C@@H]2C=C[C@H]1C2 (racemic) [Example 286]
1.1 | COc1cc(F)c(-c2ccc(C(=O)O)cc2)cc1C(=O)N[C@H]1[C@@H](C(=O)Nc2cc(F)cc(C(F)(F)F)c2)[C@@H]2C=C[C@H]1C2 (racemic) [Example 308]
0.29 | COc1cc(F)c(O[C@H]2CC[C@@](CO)(C(=O)O)CC2)cc1C(=O)N[C@H]1[C@@H](C(=O)NCC2(C)CCC2)[C@H]2CC[C@@H]1O2 (racemic) [Example 332]
0.023 | COc1cc(F)c(O[C@H]2CC[C@@](C)(C(=O)O)CC2)cc1C(=O)NC1C(C(=O)Nc2cccc(S(=O)(=O)C(F)(F)F)c2)CC2OCOC21 (single isomer, unassigned) [Example 512, (1R,4s)-4-(2-Fluoro-4-methoxy-5-(((3aR*,4S*,5S*,6aS*)-5-((3-((trifluoromethyl)sulfonyl)phenyl)carbamoyl)tetrahydro-4H-cyclopenta[d][1,3]dioxol-4-yl)carbamoyl)phenoxy)-1-methylcyclohexane-1-carboxylic acid]
13 | CC1(CNC(=O)[C@H]2[C@@H]3CC[C@@H](C3)[C@H]2NC(=O)c2cc(O[C@H]3CC[C@@](C)(C(=O)O)CC3)c(F)cc2C#N)CCC1 [Example 377]
0.28 | COc1cc(F)c(OC[C@H]2C[C@H](C(=O)O)C2)cc1C(=O)N[C@@H]1[C@@H]2CC[C@@H](C2)[C@@H]1C(=O)Nc1cccc(S(=O)(=O)C(F)(F)F)c1 [Example 472, (1R,3r)-3-((2-Fluoro-4-methoxy-5-(((1R,2R,3S,4S)-3-((3-((trifluoromethyl)sulfonyl)phenyl)carbamoyl)bicyclo[2.2.1]heptan-2-yl)carbamoyl)phenoxy)methyl)cyclobutane-1-carboxylic acid]
1.1 | COc1cc(F)c(O[C@H]2CC[C@](C)(CC(=O)O)CC2)cc1C(=O)N[C@@H]1[C@H]2CC[C@H](C2)[C@@H]1C(=O)NCC1(C)CCC1 [Example 477, 2-((1R,4r)-4-(2-Fluoro-4-methoxy-5-(((1S,2R,3S,4R)-3-(((1-methylcyclobutyl)methyl)carbamoyl)bicyclo[2.2.1]heptan-2-yl)carbamoyl)phenoxy)-1-methylcyclohexyl)acetic acid]
0.28 | COC[C@]1(C(=O)O)CC[C@@H](Oc2cc(C(=O)N[C@@H]3[C@H]4CC[C@H](C4)[C@@H]3C(=O)NCC(C)(C)C)c(OC)cc2F)CC1 [Example 481]
0.28 | COC(=O)[C@]1(C(=O)O)CC[C@@H](Oc2cc(C(=O)N[C@@H]3[C@H]4CC[C@H](C4)[C@@H]3C(=O)NCC3(C)CCC3)c(OC(C)C)cc2F)CC1 [Example 485, (1R,4r)-4-(2-Fluoro-4-isopropoxy-5-(((1S,2R,3S,4R)-3-(((1-methylcyclobutyl)methyl)carbamoyl)bicyclo[2.2.1]heptan-2-yl)carbamoyl)phenoxy)-1-(methoxycarbonyl)cyclohexane-1-carboxylic acid]
1.1 | COc1cc(F)c(O[C@H]2CC[C@@](C)(C(=O)O)CC2)cc1C(=O)N[C@@H]1[C@H]2CC[C@H](C2)[C@@H]1C(=O)NCCC(F)(F)F [Example 596]
